# scFv variants of Ab-95 (light chain) against a SARS-CoV-2 spike peptide

Data: MIT Lincoln Laboratory AlphaSeq set, Engelhart et al. 2022, doi:10.1038/s41597-022-01779-4, as distributed in FLAb.

Binding partner: SARS-CoV-2 spike HR2 peptide, sequence PDVDLGDISGINAS.

Ab-95 is the parent antibody, in scFv form: VH, then a (GGGGS)3 linker, then VL. The heavy chain is unchanged in all variants.
VH: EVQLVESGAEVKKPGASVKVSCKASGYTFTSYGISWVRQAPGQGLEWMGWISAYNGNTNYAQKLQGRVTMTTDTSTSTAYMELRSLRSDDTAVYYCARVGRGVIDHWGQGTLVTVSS
VL: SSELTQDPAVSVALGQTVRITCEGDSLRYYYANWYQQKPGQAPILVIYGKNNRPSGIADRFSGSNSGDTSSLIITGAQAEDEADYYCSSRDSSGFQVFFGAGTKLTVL

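Phage display of a naive human antibody library on the peptide gave the parent. AAYL52 was designed without a model: most single CDR substitutions and a random sample of double and triple ones. The assay is AlphaSeq: two haploid yeast populations carry antibody and antigen on their surface. The frequency of each diploid, read from paired DNA barcodes, reflects how well the two displayed proteins bind. A regression on co-assayed BCL2-family reference pairs converts the normalised counts of each replicate to an apparent Kd. Mating was done three times.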

Variants are written as CDR1, CDR2 and CDR3 of the light chain (limits as in the source). Parent: EGDSLRYYYAN, GKNNRPS, SSRDSSGFQVF.
This list gathers variants with a substitution at Y30 (VL, numbered from residue 1).
Each Kd is an estimate from the mating assay, the geometric mean of the replicates in which the pair was seen; lower is stronger.
An entry "nd" has no value in the source: the pair was not observed among the diploids in any replicate. This suggests poor binding but is not conclusive.

| CDR-L1 | CDR-L2 | CDR-L3 | Kd (apparent) | detected | control signals |
|---|---|---|---|---|---|
| EGRSLRYRYAN | GKNNRPS | SSRDSSGFQVF | 42 nM | 3 of 3 | 1 of 9 |
| EGDSLRYTVAN | GKNNRPS | GSRDSSGFQVF | 640 nM | 3 of 3 | 5 of 9 |
| EGDSLRYQYAN | GKNNRPS | SSRDSSGFQHF | 14 nM | 3 of 3 | 4 of 9 |
| EGDSLRYPYAN | GKNNVPS | SSRDSSGFFVF | 7.8 µM | 3 of 3 | 3 of 9 |
| EGDSLRYNYAN | GKNNRPS | SSRDSMGFQNF | 49 nM | 3 of 3 | 0 of 9 |
| YGISLRYQYAN | GKNNRPS | SSRDSSGFQVF | 27 nM | 3 of 3 | 4 of 9 |
| EGDSLRYKYAN | NKNNRPS | SSRDSSGFQVM | 580 nM | 3 of 3 | 1 of 9 |
| EGDSLRYFYFN | GKNYRPS | SSRDSSGFQVF | 14 nM | 3 of 3 | 5 of 9 |
| EGCSTRYNYAN | GKNNRPS | SSRDSSGFQVF | 92 nM | 3 of 3 | 4 of 9 |
| EGDSLRYDYAN | GKNNRPD | SSRDSSGFQWF | 930 nM | 3 of 3 | 4 of 9 |
| EGDSLRYTYAN | GKNNRMS | SSRDSPGFQVF | 54 nM | 3 of 3 | 3 of 9 |
| EGDSLRYLYAI | GKNQRPS | SSRDSSGFQVF | 9.1 µM | 2 of 3 | 3 of 9 |
| EGDHLRYEYAN | GKNNRPS | SSYDSSGFQVF | 28 µM | 1 of 3 | 0 of 9 |
| EGRSLRYMYAN | GKNNFPS | SSRDSSGFQVF | 6.2 µM | 1 of 3 | 3 of 9 |
| EVDSLRYFYAN | GKNNRPS | SSRDSSGFQVF | 6.2 µM | 2 of 3 | 3 of 9 |
| EGDSLRYKYAN | RKNNDPS | SSRDSSGFQVF | 1.2 µM | 1 of 3 | 0 of 9 |
| EGVSLIYNYAN | GKNNRPS | SSRDSSGFQVF | 8.9 nM | 3 of 3 | 2 of 9 |
| EGDSLRYHYAI | GKNNRNS | SSRDSSGFQVF | 9.6 µM | 3 of 3 | 0 of 9 |
| EGDSLRYTIAN | IKNNRPS | SSRDSSGFQVF | 38 µM | 2 of 3 | 2 of 9 |
| EGDSLRYGYAN | GKNNRPS | SSRDSMGIQVF | 320 nM | 3 of 3 | 3 of 9 |
| EGDSLRYNYTN | GKNNRPS | SSRCSSGFQVF | 4.2 µM | 1 of 3 | 4 of 9 |
| EVDSLRYVYAN | GKNIRPS | SSRDSSGFQVF | 430 nM | 3 of 3 | 2 of 9 |
| EGDSLRYSYAI | GKNNRPS | SSRDSSGFQVF | 830 nM | 3 of 3 | 6 of 9 |
| EGDSLRYNYAN | GKNNRRS | SSRDSSGVQVF | 10 nM | 3 of 3 | 1 of 9 |
| EGDSLRYIYAN | GKFNRPS | SSRSSSGFQVF | 8.6 µM | 3 of 3 | 3 of 9 |
| EGDSMEYEYAN | GKNNRPS | SSRDSSGFQVF | 130 nM | 3 of 3 | 2 of 9 |
| EGDSLRYIYAN | EKNNHPS | SSRDSSGFQVF | nd | 0 of 3 | 1 of 9 |
| EGDSLRYCYAN | GKNNRPS | SSRDSSVGQVF | nd | 0 of 3 | 3 of 9 |
| EGDSLRYCYAN | GKPNRPS | SSRDSPGFQVF | 3.0 µM | 1 of 3 | 5 of 9 |
| EGDSLRYCYAN | GKNNRPS | SSMFSSGFQVF | 270 nM | 3 of 3 | 4 of 9 |
| EGDSLRYQYAN | GGNNRPS | LSRDSSGFQVF | 51 nM | 3 of 3 | 2 of 9 |
| EGDSTRYGYAN | GKNNRPS | SSRDSEGFQVF | 260 nM | 3 of 3 | 7 of 9 |
| EGDSLRYFWAN | GKNNRPS | SSRDSSGEQVF | nd | 0 of 3 | 1 of 9 |
| EGDSLRYKYAN | GKNNRPS | SSRDSEGFQVL | 22 nM | 3 of 3 | 3 of 9 |
| EGDRLRYTYAN | GKNNRPS | SSRDSSGFQNF | 4.1 µM | 2 of 3 | 4 of 9 |
| EGDSLRYTYAN | GKNNRPS | DSRDSSGFQVF | nd | 0 of 3 | 4 of 9 |
| EGDILRYHYAN | GKNNRPS | SERDSSGFQVF | 4.5 µM | 2 of 3 | 4 of 9 |
| EGDSLRYHYAN | GKNNRPS | SCRDSSEFQVF | nd | 0 of 3 | 0 of 9 |
| EGDSLRYEYAG | GKNNRPS | SSRDSSGFQLF | nd | 0 of 3 | 2 of 9 |
| EGDSLDYHYAN | GKNPRPS | SSRDSSGFQVF | 3.1 µM | 1 of 3 | 2 of 9 |
| EMDNLRYQYAN | GKNNRPS | SSRDSSGFQVF | 17 nM | 3 of 3 | 6 of 9 |
| EGDSLRYPYAN | GYNNRPS | SSRDSSGFQSF | 790 nM | 3 of 3 | 2 of 9 |
| EGDSFRYFYAN | GKNNRPS | SSRDSSGFQMF | nd | 0 of 3 | 3 of 9 |
| HGDSLRYGYAN | GKNNRPS | SSRDFSGFQVF | 14 nM | 3 of 3 | 1 of 9 |
| EGDSLRYHYAN | GKNNRPS | STRDSSGFQVF | 15 nM | 3 of 3 | 7 of 9 |
| EGDSLRYVYAN | GNNNRPS | SSRDSSGFQNF | 440 nM | 3 of 3 | 3 of 9 |
| RGDSLRYIYAN | GKNNRPS | SSRDSSGAQVF | 1.0 µM | 3 of 3 | 4 of 9 |
| EGDVLRYSYAN | GKNNRPS | SSRDSWGFQVF | 38 nM | 3 of 3 | 5 of 9 |
| EGDSLRYGYAN | GKANRPS | SSRDVSGFQVF | 10 nM | 3 of 3 | 1 of 9 |
| EGDSLRYEYAN | GKNNRPS | SERDSEGFQVF | 40 nM | 3 of 3 | 2 of 9 |
| EGDSLRYAYAN | GKNNRPD | SSRDSSEFQVF | 35 nM | 3 of 3 | 2 of 9 |
| KGDSLRYPYAN | GKNNRPS | SSRDSSGFQVL | 330 nM | 3 of 3 | 2 of 9 |
| EGDWLRYFYAN | WKNNRPS | SSRDSSGFQVF | nd | 0 of 3 | 3 of 9 |
| EGDSLRAVYAN | GKNNRPS | SSNDSSGFQVF | 60 nM | 3 of 3 | 3 of 9 |
| EGDSLRYPYAN | GKNNRPS | SSRDSSGHQVI | 11 µM | 2 of 3 | 6 of 9 |
| EGDSLRYFYAN | GKNNRPS | SQRDNSGFQVF | 37 µM | 2 of 3 | 3 of 9 |
| EGDSLRYAYAN | GKNNIPS | SSRDSYGFQVF | 20 nM | 3 of 3 | 2 of 9 |
| EGDSLRYFYAN | MKNNRPS | SSRDSSGFCVF | 43 µM | 2 of 3 | 2 of 9 |
| EGDSLRYNHAN | GKNNRPS | SSRDSSGFQVF | 6.3 nM | 3 of 3 | 1 of 9 |
| EGDSLRYWYAN | GKNNRPS | ISRDSSGFQVF | 780 nM | 3 of 3 | 2 of 9 |
| EGDSRMYCYAN | GKNNRPS | SSRDSSGFQVF | 5.5 µM | 2 of 3 | 4 of 9 |
| EGDSLRYLYAN | GKNRRPS | SSRDSSGFQVF | 1.8 µM | 3 of 3 | 6 of 9 |
| EGDSGRYIYAN | FKNNRPS | SSRDSSGFQVF | 8.6 µM | 2 of 3 | 5 of 9 |
| EGDSLRYAYAN | GKNNRPS | SETDSSGFQVF | 19 nM | 3 of 3 | 5 of 9 |
| EGDSLRYAYAN | GKNNRCS | SSRDSSGFQVQ | 880 nM | 2 of 3 | 2 of 9 |
| EGDSLRYHYAN | GKNNRPS | SSFDSYGFQVF | 6.0 nM | 3 of 3 | 1 of 9 |
| EGDSLRYLYAN | GKNNRPS | SSRDSSGFQIF | 420 nM | 3 of 3 | 2 of 9 |
| EGDSLRYRYAN | GKNNRPC | SSRDSSGTQVF | 310 nM | 3 of 3 | 3 of 9 |

Top 7 of the variants detected in all replicates, tightest first:

| CDR-L1 | CDR-L2 | CDR-L3 | Kd (apparent) | detected | control signals |
|---|---|---|---|---|---|
| EGDSLRYHYAN | GKNNRPS | SSFDSYGFQVF | 6.0 nM | 3 of 3 | 1 of 9 |
| EGDSLRYNHAN | GKNNRPS | SSRDSSGFQVF | 6.3 nM | 3 of 3 | 1 of 9 |
| EGVSLIYNYAN | GKNNRPS | SSRDSSGFQVF | 8.9 nM | 3 of 3 | 2 of 9 |
| EGDSLRYNYAN | GKNNRRS | SSRDSSGVQVF | 10 nM | 3 of 3 | 1 of 9 |
| EGDSLRYGYAN | GKANRPS | SSRDVSGFQVF | 10 nM | 3 of 3 | 1 of 9 |
| HGDSLRYGYAN | GKNNRPS | SSRDFSGFQVF | 14 nM | 3 of 3 | 1 of 9 |
| EGDSLRYFYFN | GKNYRPS | SSRDSSGFQVF | 14 nM | 3 of 3 | 5 of 9 |

Background: pairings of library AAYL52 with three empty control strains gave a value in 28% of cases (median 8.2 µM, 5th percentile 800 nM). Values in that range, when seen in few replicates, are hard to tell from nonspecific mating. For each scFv, signals with the empty controls are counted beside the result.
Parent in this assay: reference entry 200 nM, copy in this library 180 nM.